Test results from patent publication US6448405B1, “Steroid receptor modulator compounds and methods” (Ligand Pharmaceuticals Incorporated, priority 1994, dated 2002).

Test system: ventral prostates (VP) and seminal vesicles (SV) of immature castrated rats
Assay: Immature castrated male rat model (antiandrogen activity)
Assay type: in vivo
Settings: TP dose used for antagonist tests

SMILES: CCC(=O)O[C@H]1CC[C@H]2[C@@H]3CCC4=CC(=O)CC[C@]4(C)[C@H]3CC[C@]12C [TP, Testosterone Propionate, reference compound]
- ED80: 0.1 mg
